Earlier results in US20250062039A1, “ESTIMATION OF PHARMACOKINETIC (PK) PARAMETERS OF DRUG CANDIDATES USING UNIVERSAL PK PARAMETERS BOUNDS” (Tata Consultancy Services Limited, priority 2023, published 2025).

Settings: IV Bolus 161.74 μg; individual values of subjects 1-7; cited from earlier work

CCC(=O)N(c1ccccc1)C1(COC)CCN(CCn2nnn(CC)c2=O)CC1
CL: 18.24, 15.26, 23.38, 12.29, 10.49, 7.91, 12.41 L/hr
T1/2beta: 1.76, 1.42, 1.25, 1.52, 1.97, 2.34, 1.14 hr
V2: 23.52, 16.22, 24.18, 12.25, 18.26, 10.17, 9.34 L
Vss: 38.69, 25.16, 35.28, 23.25, 26.52, 23.21, 18.49 L

Only a part of the results on these compounds is given; other tests are left out. Certain results were filed several times, with different values. Only these are listed. There may be further records. The values listed for one entry do not match, cause unknown; some may be repeats, others may stem from another dose, organism or construct than stated.
